From patent US7605179B2, “Napthoquinone derivatives as inhibitors of tau aggregation for the treatment of alzheimer's and related neurodegenerative disorders” (Wista Laboratories Ltd., priority 2001, dated 2009)

Sequences of proteins named here, by UniProt entry; tags and fusion partners are left off. Residues count along the entry.
UniProt P10636, 1-441 isoform 8: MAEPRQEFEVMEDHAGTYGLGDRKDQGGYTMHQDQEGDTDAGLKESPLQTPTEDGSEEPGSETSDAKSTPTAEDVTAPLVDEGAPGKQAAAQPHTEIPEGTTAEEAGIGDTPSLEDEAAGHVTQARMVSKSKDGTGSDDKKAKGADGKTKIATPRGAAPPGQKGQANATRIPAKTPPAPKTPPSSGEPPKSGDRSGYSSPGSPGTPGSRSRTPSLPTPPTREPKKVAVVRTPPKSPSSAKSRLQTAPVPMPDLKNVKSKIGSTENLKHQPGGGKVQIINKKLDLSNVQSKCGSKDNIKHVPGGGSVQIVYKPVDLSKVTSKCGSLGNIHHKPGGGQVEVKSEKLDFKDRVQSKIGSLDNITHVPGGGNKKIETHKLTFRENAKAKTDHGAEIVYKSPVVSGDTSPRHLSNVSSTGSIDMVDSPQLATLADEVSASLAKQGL

Assays:
fibroblast cells (3T6) = experiment: Toxicity in the T40/12 kD cell assay (lactate dehydrogenase kit); type: cell-based; conditions: tested form: K salt
tau-tau binding = tau-tau binding (Homo sapiens, UniProt P10636); experiment: Cell-based assay I ('T40/12 kD'), production of the 12 kD fragment; conditions: tested form: K salt
Excerpt: In essence, fibroblast cells (3T6) express full-length tau (“T40”) under control of an inducible promotor, and low constitutive levels of the PHF-core tau fragment (12 kD fragment). When T40 expression is induced, it undergoes aggregation-dependent truncation within the cell, N-terminally at ˜αα 295 and C-terminally at ˜αα 390, thereby producing higher levels of the 12 kD PHF-core domain fragment. Production of the 12 kD fragment can be blocked in a dose-dependent manner by tau-aggregation inhibitors. Indeed the quantitation of inhibitory activity of compounds with respect to proteolytic generation of the 12 kD fragment within cells can be described entirely in terms of the same parameters which describe inhibition of tau-tau binding in vitro. That is, extent of proteolytic generation of the 12 kD fragment within cells is determined entirely by the extent to tau-tau binding through the repeat domain. The availability of the relevant proteases within the cell is non-limiting.
The process is described in more detail in prior filed unpublished application GB 0101049.5. […]
A further parameter, B50, has been established in respect of compounds exemplified herein. The B50 value is the determined concentration of test compound used in the cell assay at which relative production of the 12 kD band from full-length tau was reduced to 50% of that observed in the absence of the compound. […]

## O=C1C=C(S(=O)(=O)O)C(=O)c2ccccc21
Fibroblast cells (3T6); cellular LD50, cell numbers after 24 hrs exposure
  LD50: 18.55 µM
Fibroblast cells (3T6); therapeutic index, RxIndx=LD50/B50
  Rxindx: 5.45
tau-tau binding; apparent KI calculated from T40/12 kD cell data, assumes intracellular tau 500 nM, tau-tau Kd 22 nM
  Ki: 0.157 µM
tau-tau binding; read-out: B50, concentration at which production of the 12 kD band from full-length tau is reduced to 50%
  IC50: 3.41 µM
